{"source": "patent EP4729597A1", "about": "“LOW-ALCOHOL BEER-LIKE BEVERAGE AND METHOD FOR PRODUCING LOW-ALCOHOL BEER-LIKE BEVERAGE” (Asahi Group Holdings, Ltd., priority 2023, dated 2024)", "origin": "cited, not measured here", "note": "Read-outs that look alike come from different tables or passages of the source."}
{"smiles": "C=CC(C)(O)CCC=C(C)C", "note": "(centres unmarked) [Linalool]", "values": [{"measurement": "LogP", "setting": "Table 1, octanol/water partition coefficient", "result": 3.0}, {"measurement": "LogP", "setting": "Table 3", "result": 3.0}]}
